Values quoted from earlier work, collected in patent US8501472B2, “Compositions and methods for treating and diagnosing pancreatic cancer” (The Regents of the University of Michigan, priority 2007, dated 2013).

Tests used:
pancreatic cancer [1] = settings: reference 28
pancreatic cancer [2] = settings: reference 28; remark: listed apart in the source

CC1=C2C[C@H]3[C@@H](CC=C4C[C@@H](O)CC[C@@]43C)[C@@H]2CC[C@]12O[C@@H]1C[C@H](C)CN[C@H]1[C@H]2C [cyclopamine]
pancreatic cancer growth in vitro (pancreatic cancer [1]): inhibited pancreatic cancer growth | pancreatic cancer growth in vivo (pancreatic cancer [2]): inhibited pancreatic cancer growth
